# uPA surface inh – blocks generation of uPA at the cell surface | cell surface uPA generation assay, qHTS | AID 540303 | 330,000 tested, 0.31% active | Potency, µM (top dose mostly 38.3 µM), without a hit: at the top dose activity change, negative = inhibition, actives largely listed as inhibitors; active = well fitted inhibition curve with a large enough effect; inconclusive = small, poorly fitted or top-dose-only effect; inactive = no such curve, though single readings can be large or run the other way; tested in mouse RAW 264.7 cells; note: potency is the fitted concentration of half-maximal effect; % is set by controls: 0 for no effect and ±100 for the full control effect; nearly all actives have a fitted effect of over 55% in size
# DT40 TDP1 CPT – DT40-hTDP1 cell growth loss with CPT; Potency, µM (titrated, usually from 46.2 µM), inactives show at the highest dose activity change, negative = growth inhibition, usual class: inhibitors; chicken DT40 Tdp1-/-;hTDP1 cells + 20 nM CPT, ATP luminescence, 48 h; AID 686979; 420,000 tested, 12% active; note: potency is the fitted concentration of half-maximal effect; % is set by controls: 0 for no effect and ±100 for the full control effect; nearly all actives have a fitted effect of over 55% in size
#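 Chicken DT40 Tdp1-/- cells stably complemented with human TDP1 were seeded at 400 cells/well in medium containing 20 nM camptothecin, exposed to pin-transferred compounds, and grown at 37 °C for at least 48 hr. Viability was read as ATP luminescence.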
# TDP1 cell noCPT – qHTS for Inhibitors of human tyrosyl-DNA phosphodiesterase 1 (TDP1): qHTS in cells in absence of CPT; DT40 Tdp1-/- hTDP1 cells, no CPT, ATP luminescence, 48 h; Potency, µM (series often up to 46.2 µM), for the others: at the highest dose activity change, negative = growth inhibition, usual class: inhibitors; 420,000 tested, 15% active; note: potency is the fitted concentration of half-maximal effect; % is set by controls: 0 for no effect and ±100 for the full control effect; nearly all actives have a fitted effect of over 55% in size
#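 Compound effects on proliferation are scored in DT40 Tdp1-/-;hTDP1 cells in the absence of CPT. ATP levels (CellTiter-Glo luminescence) are recorded after a ≥48 hr, 37 °C incubation.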
# miR-21 reporter – miR-21 reporter, rising signal; HeLa miR-21 FLuc reporter, luciferase, 48 h; Potency, µM (highest dose often 38.3 µM), for the others: top-dose reporter change, positive = more light; 340,000 tested, under 10 active; AID 2288; active = well fitted rising curve with a large enough effect; inconclusive = small, poorly fitted or top-dose-only effect; inactive = no such curve, though single readings can be large or run the other way;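 further: % of control where 0% means no effect; miR-21 action dims this reporter so a rising signal means less miR-21 action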
#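 HeLa cells stably expressing CMV-driven firefly luciferase with a downstream miR-21 binding sequence, endogenously expressing miR-21, were treated with titrations (up to about 40uM final) for 48 hours at 37 degree Celsius. Luciferase luminescence was read after lysis.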
# TDP1 inh – TDP1 (human) enzyme inhibition; recombinant TDP1, AlphaScreen DNA substrate cleavage; Potency, µM (series often up to 130 µM), without a hit: at the highest dose activity change, negative = inhibition, usual class: inhibitors; 350,000 tested, 0.28% active; note: potency is the fitted concentration of half-maximal effect; % is set by controls: 0 for no effect and ±100 for the full control effect; nearly all actives have a fitted effect of over 40% in size
#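 Signal: AlphaScreen proximity between streptavidin donor and anti-FITC acceptor beads on intact substrate. Reaction: Tdp1 1 nM, substrate 15 nM final, 5 min RT after 15 min compound preincubation.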
# Numbers without * were called inactive; ? = inconclusive; / = no result given; [ ] = dose if it differs, or a comment. Most compounds without a hit are left out; they make up all but 16% or so of the library. Unless noted, calls come from the whole dose curve; as a rule, active = well fitted curve in the direction sought with a large enough effect; inconclusive = small, poorly fitted or top-dose-only effect, or another doubt; inactive = no such curve, though single readings can be large; an effect the other way counts as inactive or inconclusive.
mol,uPA surface inh,DT40 TDP1 CPT,TDP1 cell noCPT,miR-21 reporter,TDP1 inh
Cc1ccc(N2C(=S)N=C(Nc3ccccc3C)C23CCOC(C)(C)C3)cc1 (stereo not drawn),-1.2%,?,?,0.1%,5.9%
Cc1nc2c(nc1C)C(=O)c1ccccc1C2=O,-10.1%,3.66µM*,4.61µM*,/,/
CCCCCCOc1ccc(C(=N)N(CCCC)CCCC)c2ccccc12,/,4.22µM*,2.66µM*,/,/
CCCCN(CC)CCOc1cccc2ccccc12,/,-28.1%,?,/,14.6%
CC(C)CC(=O)/C(=C\c1ccc(Cl)cc1Cl)n1cncn1,7.08µM*,2.91µM*,1.84µM*,?,1.9%
CC(C)CC(=O)/C(=C/c1ccc(N(C)C)cc1)n1cncn1,-3.6%,-7.1%,0.9%,-9.5%,/
CN(C)/C=C(/C(=O)c1ccc(Cl)cc1)n1cncn1,-2.1%,-5.7%,18.7%,-0.1%,-2.9%
CN(C)c1ccc(/C=C(/C(=O)c2ccc(Cl)cc2Cl)n2cncn2)cc1,-10.8%,23.1µM*,23.1µM*,20.2%,0.0%
COc1ccc(C2CC(c3c(O)cc(C)oc3=O)=NCCS2)c(OC)c1 (stereo not drawn),-12.3%,0.461µM*,0.0206µM*,12.3%,9.6%
COc1ccc(/C=C/C(=O)c2c(O)cc(C)oc2=O)c(OC)c1,-6.2%,?,?,-35.7%,4.1%

# (next part)
mol,uPA surface inh,DT40 TDP1 CPT,TDP1 cell noCPT,miR-21 reporter,TDP1 inh
N#Cc1ccccc1Cn1c(=O)n(Cc2ccc(C(=O)NC3CCN(Cc4ccccc4)CC3)cc2)c(=O)c2ccccc21,/,2.4%,7.3%,-3.9%,4.5%
CCOC(=O)CSC1=NC(=O)/C(=C/c2ccc(Br)cc2)S1,-4.0%,2.59µM*,4.11µM*,-48.3%,8.1%
CCOC(=O)COc1ccc(Br)cc1/C=C1\SC(N)=NC1=O,-10.4%,-3.8%,?,-5.6%,-5.0%
CCOC(=O)CSC1=NC(=O)/C(=C\c2ccc(OC(C)=O)cc2)S1,/,2.59µM*,2.91µM*,-24.8%,9.9%
Cc1nnc2c(Oc3ccccc3)nc3ccccc3n12,-2.9%,-3.1%,0.8%,0.6%,2.5%
CC(=O)OCC1OC(n2cc(F)c(=O)[nH]c2=O)C(OC(C)=O)C1OC(C)=O (stereo not drawn),?,8.2µM*,5.17µM*,/,/
CC(=O)OCC1OC(n2cnc3c(Cl)nc(Cl)nc32)C(OC(C)=O)C1OC(C)=O (stereo not drawn),/,?,20.6µM*,/,16.4%[56.1 µM]
C=CCN1C(=O)CSc2ccc(C(=O)OCC)cc21,/,0.5%,-8.3%,-12.4%,-4.0%
CC(C)S(=O)(=O)C/C(N)=N/OC(=O)c1cc(Cl)cc(Cl)c1,1.8%,11.0%,-7.4%,-20.4%,5.5%
Cc1ccc(OCCCC(=O)N(C)CC(=O)Nc2c(C)cccc2C)cc1,/,-9.4%,?,/,/

# (list continues)
mol,uPA surface inh,DT40 TDP1 CPT,TDP1 cell noCPT,miR-21 reporter,TDP1 inh
N#CC1=C(Nc2ccccc2Cl)SC2(CCCC2)NC1=O,/,16.4µM*,18.4µM*,/,/
COc1cc(OC)cc(N2CC(C)(C)C2=O)c1,5.9%,?,?,-4.0%,-1.6%
FC(F)(F)c1ccccc1-c1ccc2ncnc(NC3CC3)c2c1,/,23.1µM*,20.6µM*,/,/
FC(F)(F)c1ccccc1-c1ccc2ncnc(NCc3cccs3)c2c1,/,23.1µM*,?,/,/
COc1ccccc1-c1cncnc1-n1ccnc1,/,-5.6%,-27.1%,/,22.4µM*
c1csc(CNc2ncnc3ccc(-c4ccoc4)cc23)c1,-6.5%,?,-25.2%,/,3.0%
FC(F)(F)c1ccccc1-c1nc(NC2CC2)c2ccccc2n1,/,-5.4%,-27.3%,/,/
CN(C)C(=O)c1ccc(-c2ccc3ncnc(NC4CC4)c3c2)cc1,/,-6.8%,?,/,/
Cc1ccccc1-c1ccc2ncnc(NC3CC3)c2c1,/,16.4µM*,?,/,/
Cc1ccccc1-c1ccc2ncnc(-n3ccnc3)c2c1,/,20.6µM*,20.6µM*,/,/

# Ordered by molecular weight (falling): 5 of the compounds above
mol,uPA surface inh,DT40 TDP1 CPT,TDP1 cell noCPT,miR-21 reporter,TDP1 inh
FC(F)(F)c1ccccc1-c1ccc2ncnc(NCc3cccs3)c2c1,/,23.1µM*,?,/,/
FC(F)(F)c1ccccc1-c1nc(NC2CC2)c2ccccc2n1,/,-5.4%,-27.3%,/,/
N#CC1=C(Nc2ccccc2Cl)SC2(CCCC2)NC1=O,/,16.4µM*,18.4µM*,/,/
c1csc(CNc2ncnc3ccc(-c4ccoc4)cc23)c1,-6.5%,?,-25.2%,/,3.0%
COc1cc(OC)cc(N2CC(C)(C)C2=O)c1,5.9%,?,?,-4.0%,-1.6%

# Next part.
mol,uPA surface inh,DT40 TDP1 CPT,TDP1 cell noCPT,miR-21 reporter,TDP1 inh
COCCNc1ncnc2ccc(-c3ccccc3C)cc12,/,10.3µM*,20.6µM*,/,/
COCCNc1ncnc2ccc(-c3ccc(C(=O)N(C)C)cc3)cc12,/,-11.5%,-2.4%,/,/
CCOC(=O)[C@H]1[C@H]2COc3ccccc3[C@@H]2N2C(=O)CN(Cc3ccc(C)cc3)C(=O)[C@@]12C,9.4%,2.0%,-11.0%,/,9.8%
Cc1ccc(C)c(CN2C(=O)c3ccccc3S(=O)(=O)c3ccc(C(=O)NCc4ccccc4)cc32)c1,/,19.6%,-17.2%,-1.2%,2.3%
O=C(Nc1ccccc1C(=O)N1CCNCC1)c1ccco1,/,/,/,-6.6%,2.5%
Cc1ccccc1OCCSc1nnc(-c2cccs2)o1,/,-23.0%,?,-6.9%,/
COc1cc(-c2nnc(SCc3ccccc3Cl)o2)cc(OC)c1OC,-8.7%,?,?,-34.1%,1.1%
CCc1ccccc1OCCSc1nnc(-c2cc(OC)c(OC)c(OC)c2)o1,/,18.4µM*,18.4µM*,-5.2%,11.4%
COc1ccc(-c2nnc(SCCOc3ccccc3C)o2)cc1OC,/,?,18.4µM*,-6.0%,5.7%
COc1cccc(NC(=O)CCNC(=O)N2CC(=O)Nc3ccccc32)c1,-20.6%,-3.0%,29.6%,6.7%,1.1%

# Going on with the list:
mol,uPA surface inh,DT40 TDP1 CPT,TDP1 cell noCPT,miR-21 reporter,TDP1 inh
CCOc1ccc(CN2C(=O)c3ccccc3Sc3ccc(C(=O)NCc4ccc(C)cc4)cc32)cc1,/,7.8%,-20.6%,-0.4%,2.3%
COc1nc(Cl)cn(-c2ccc(Cl)cc2)c1=O,4.2%,2.9%,2.6%,-12.0%,2.6%
CCOc1ccccc1Nc1nc2ccccc2c2nncn12,/,-24.1%,?,2.0%,-6.4%[12.3 µM]
Cc1ccc(Cl)cc1Nc1nc2ccccc2c2nncn12,/,?,23.1µM*,-16.8%,2.5%
O=C(CC(c1ccccc1)c1ccccc1O)NCCc1ccccc1 (stereo not drawn),7.3%,-2.7%,?,8.2%,/
O=C(Cc1ccccc1)NCc1ccncc1,4.3%,-5.2%,17.2%,-46.8%,0.0%
O=C(Cc1ccc(-n2cccc2)cc1)NCc1ccccc1Cl,-20.5%,5.8µM*,5.8µM*,12.8%,2.7%
O=C(Cc1ccccc1)NCc1ccc(-n2cccc2)cc1,1.78µM*,3.26µM*,3.66µM*,9.9%,-8.2%
O=C(CNC(=O)c1ccc(Br)o1)NCc1ccccc1Cl,-2.6%,11.5%,-2.9%,-1.6%,4.4%
O=C(CC(c1ccccc1)c1ccccc1O)NCc1ccccc1Cl (stereo not drawn),3.5%,23.1µM*,16.4µM*,3.2%,2.3%

# (more compounds)
mol,uPA surface inh,DT40 TDP1 CPT,TDP1 cell noCPT,miR-21 reporter,TDP1 inh
Cc1cnn(-c2cc(N/N=C/c3ccc(F)cc3)ncn2)c1,3.3%,-22.4%,-25.4%,-2.5%,3.1%
COCCn1c(=N)c(C(=O)NCCc2ccccc2)cc2c(=O)n3cccc(C)c3nc21,-7.6%,?,?,/,/
Cc1cccn2c(=O)c3cc(C(=O)NCCN4CCOCC4)c(=N)n(CCc4ccccc4)c3nc12,1.4%,?,23.1µM*,1.5%,3.9%
CCNC(=O)c1cc2c(=O)n3cccc(C)c3nc2n(CCc2ccccc2)c1=N,-1.4%,?,12.6µM*,-4.6%,1.1%
